{"source": "ChEMBL document CHEMBL3132754", "about": "(Medchemcomm, 2013)", "tested_on": "Liver microsome", "experiment": "Intrinsic clearance in human liver microsomes measured per gram of protein at 200 uM measured after 1 by LC/MS/MS method", "format": "ADME", "data": [{"smiles": "CC(C)N(CCCNC(=O)Nc1ccc(C(C)(C)C)cc1)C[C@H]1O[C@@H](n2cnc3c(N)ncnc32)[C@H](O)[C@@H]1O", "values": [{"measurement": "CLH", "result": 24, "unit": "µL/min"}]}]}
